# Binding of CDR-mutated scFvs to a peptide of the spike HR2 region

Target: peptide PDVDLGDISGINAS, taken from heptad repeat 2 (HR2) of SARS-CoV-2 spike.

Each scFv is VH, a (GGGGS)3 linker, VL, as in the parent Ab-14, and differs from it in the CDRs of the heavy chain only.
VH: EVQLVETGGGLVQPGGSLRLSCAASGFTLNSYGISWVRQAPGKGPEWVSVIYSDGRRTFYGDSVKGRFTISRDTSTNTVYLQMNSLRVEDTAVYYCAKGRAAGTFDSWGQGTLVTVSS
VL: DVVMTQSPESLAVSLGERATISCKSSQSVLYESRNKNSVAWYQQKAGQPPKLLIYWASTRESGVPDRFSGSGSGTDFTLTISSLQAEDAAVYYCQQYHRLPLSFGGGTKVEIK

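The starting antibody came from a phage panning campaign against this peptide. These sequences belong to a second round, designed from the earlier measurements on random variants of the parent. Group labels follow the data file (Ctrl: baseline library sampled from a position-specific scoring matrix, with some repeated check sequences; En: ensemble of fine-tuned language models; GP: Gaussian process model; GPLM: also part of the Gaussian process libraries; HC: hill climbing; Gen: genetic algorithm; Gibbs: Gibbs sampling; a sequence that several methods proposed may carry one label only). The scFvs were displayed on barcoded MATa yeast, the peptide on MATalpha yeast. The frequency of each diploid, read from paired DNA barcodes, reflects how well the two displayed proteins bind. The ratio of observed to expected reads was calibrated, replicate by replicate, on BCL2-family standards whose Kd was known from biolayer interferometry. Each pool was mated in six replicate cultures.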

Variants are written as CDR1, CDR2 and CDR3 of the heavy chain (limits as in the source). Parent: GFTLNSYGIS, VIYSDGRRTFYGDSVK, GRAAGTFDS.
This list holds designs with at most six substitutions.
Affinities are written as log10 Kd with Kd in nM; a lower number is a better binder.
Replicates are averaged; those with no signal do not enter the mean.
An entry "nd" has no value in the source: the pair was not observed among the diploids in that replicate. This suggests poor binding but is not conclusive.
Values of this round are not directly comparable with the first-round values of the same sequences.
The authors' rule: three or more of the six replicates give a measured affinity, fewer mean a poor binder.
Background: pairings of all heavy chain designs with three empty control strains gave a value in 1% of cases (median 2.08, 5th percentile 0.84). Values in that range, when seen in few replicates, are hard to tell from nonspecific mating. For each scFv, signals with the empty controls are counted beside the result, with their mean in brackets.
The parent sequence was in this pool as ten entries: three were never detected, three once, and four in most replicates, with averages from 0.34 to 2.37.

| CDR-H1 | CDR-H2 | CDR-H3 | group | log10 Kd, replicates | mean, log10 nM | signal with controls |
|---|---|---|---|---|---|---|
| GFTLNEYGIS | VIYSDGRRTFYGDSVK | GQTAGTFDK | GPLM_Gen | -0.16 -0.17 -0.04 0.04 -0.26 0.15 | -0.07 | 1 of 18 (2.16) |
| GFTLNEYGIS | VIYSDGRRTFYTDSVK | GRNAGTFIS | GP_HC | 0.60 0.81 0.60 -0.10 0.26 0.21 | 0.40 | 0 of 18 |
| GFQLNDYGIS | VIYSDGRRTFYGDSVK | GRTAGTFDL | GP_Gibbs | 0.69 0.47 0.25 0.10 0.07 0.43 | 0.33 | 0 of 18 |
| GFSLNSYGIS | VIYSDGRRTFYSDSVK | GRVAGTFDS | GPLM_Gen | 0.00 0.15 -0.06 0.01 0.03 0.28 | 0.07 | 0 of 18 |
| GFTLLSYGIS | VIYSDGRRTFYSDSVK | GAAAGTFDM | Ctrl | nd 0.26 0.80 1.46 1.05 0.02 | 0.72 | 0 of 18 |
| GFTLNEYGIS | VIYSDGRRTFYHDSVK | GRAAGTFDT | GP_Gen | 0.45 0.63 0.44 0.30 0.77 1.20 | 0.63 | 0 of 18 |
| GFDLNEYGIS | VIYADGRRTFYADSVK | GGAAGTFDV | En_HC | 0.25 -0.23 -0.38 -0.80 -0.15 -0.11 | -0.24 | 0 of 18 |
| GFTLNSYGIS | VIYADGRRTFYGDSVK | GRVAGTFCI | GP_HC | -0.42 nd -0.87 nd -0.55 -0.35 | -0.55 | 0 of 18 |
| GFTLNEYGIS | VIYSDGIRTFYGDSVK | GRQAGTFDT | GP_Gibbs | 0.62 0.89 -0.01 0.09 -0.10 0.44 | 0.32 | 0 of 18 |
| GFTLNSYGIS | VIYSDGRRTAYSDSVK | GRLAGTFDS | Ctrl | 0.27 0.02 0.22 -0.15 0.24 0.11 | 0.12 | 0 of 18 |
| GFTLNSYGIS | VIYSDGRRTAYGDSVK | GRIAGTFCS | Ctrl | nd nd nd nd nd nd | nd | 0 of 18 |
| GFTLNSYGIS | VIYADGRRTFYGDSVK | GRAAGTYKL | GPLM_HC | nd nd nd 1.57 nd nd | 1.57 | 0 of 18 |
| GFDLNSYGIS | VIYSDGRRTFYGDSVK | GHAAGTFDQ | GP_Gen | 0.46 0.37 0.55 0.71 0.54 0.78 | 0.57 | 1 of 18 (2.08) |
| GFQLNEYGIS | VIYSDGRRTFYKDSVK | GRTAGTFDS | GP_Gen | nd nd nd nd nd nd | nd | 0 of 18 |
| GFWLNDYGIS | VIYADGRRTFYGDSVK | GSAAGTFDS | GP_HC | 0.06 0.29 0.08 0.02 -0.02 -0.07 | 0.06 | 0 of 18 |
| GFALNQYGIS | VIYSDGRRTFYSDSVK | GEAAGTFDK | GP_HC | nd nd nd nd nd nd | nd | 0 of 18 |
| GFTLNDYGIS | FIYSDGRRTFYQDSVK | GRAAGTFDQ | Ctrl | nd nd nd 3.59 nd nd | 3.59 | 0 of 18 |
| GFQLNSYGIS | VIYSDGRRTFYADSVK | GHAAGTFDS | GPLM_Gen | 0.98 1.42 1.05 0.45 0.54 0.52 | 0.83 | 1 of 18 (2.64) |
| GFTLNEYGIS | VIYSDGRRTFYGDSVK | GRAAGTFMD | GP_HC | nd 1.26 nd nd nd nd | 1.26 | 0 of 18 |
| GFELNDYGIS | VIYSDGRRTMYGDSVK | GRAAGTFDS | GP_HC | 1.42 1.09 1.49 1.75 2.69 1.26 | 1.62 | 0 of 18 |
| GFELNQYGIS | VIYSDGRRTFYSDSVK | GRLAGTFDT | GP_HC | -0.05 -0.25 -0.19 -0.56 -0.15 -0.09 | -0.22 | 1 of 18 (2.17) |
| KFGLNEYGIS | VIYSDGRRTFYGDSVK | GRTAGTFDS | GP_Gen | nd 1.57 nd nd nd nd | 1.57 | 0 of 18 |
| GFNLNSYGIS | VIYSDGRRTFYHDSVK | GWMAGTFDS | GP_Gibbs | nd 2.13 1.29 nd 2.55 2.20 | 2.04 | 0 of 18 |
| GFTLNSYGIS | VIYSDGRRTFYGDSVK | VKHAGTFDS | Ctrl | nd 1.89 nd nd nd nd | 1.89 | 0 of 18 |
| GFTLNSYGIS | VIYSDGRRCFYGDSVK | GRAAGTFDS | Ctrl | nd nd nd nd nd nd | nd | 0 of 18 |
| GFDLNSYGIS | VIYSDGRRTFYGDSVK | GRAAGAFNS | GPLM_HC | 0.65 0.55 -0.05 1.19 0.07 0.19 | 0.43 | 0 of 18 |
| GFSLNSYGIS | VIYSDGRRTFYGDSVK | GQEAGTFDS | GPLM_Gen | 1.18 0.34 0.12 0.23 0.38 0.60 | 0.47 | 0 of 18 |
| GFHLNSYGIS | VIYSDGRRTFYQDSVK | GKTAGTFDS | GP_Gen | 1.50 1.35 1.16 nd 1.68 1.12 | 1.36 | 0 of 18 |
| GFELNSYGIS | VIYSDGRRTAYHDSVK | GRAAGTFDS | GP_HC | nd nd nd nd 1.83 2.45 | 2.14 | 0 of 18 |
| GFDLNSYGIS | VIYSDGKRTFYIDKVK | GQAAGTFDS | GP_Gibbs | 0.46 -0.50 -0.34 -0.41 -0.68 -0.75 | -0.37 | 0 of 18 |
| KFTLNSYGIS | VIYSDGRRTSYGDSVK | GRSKGTFNS | Ctrl | nd nd nd nd nd nd | nd | 0 of 18 |
| GFTLNDYGIS | VIYSDGRRTFYIDSVK | GRRAGTFDS | GP_HC | 1.85 nd 1.49 nd 1.35 2.14 | 1.71 | 1 of 18 (2.22) |
| GFSLNSYGIS | VIYSDGRRTFYADSVK | GQAAGTFDL | GPLM_Gen | 0.05 0.25 0.00 -0.28 -0.14 0.01 | -0.02 | 1 of 18 (1.45) |
| GFSLNSYGIS | VIYSDGRRTFYSDQVK | GTAAGTFDS | GP_Gibbs | nd nd nd nd 1.43 nd | 1.43 | 1 of 18 (1.20) |

The last 3 entries again:

| CDR-H1 | CDR-H2 | CDR-H3 | group | log10 Kd, replicates | mean, log10 nM | signal with controls |
|---|---|---|---|---|---|---|
| GFTLNDYGIS | VIYSDGRRTFYIDSVK | GRRAGTFDS | GP_HC | 1.85 nd 1.49 nd 1.35 2.14 | 1.71 | 1 of 18 (2.22) |
| GFSLNSYGIS | VIYSDGRRTFYADSVK | GQAAGTFDL | GPLM_Gen | 0.05 0.25 0.00 -0.28 -0.14 0.01 | -0.02 | 1 of 18 (1.45) |
| GFSLNSYGIS | VIYSDGRRTFYSDQVK | GTAAGTFDS | GP_Gibbs | nd nd nd nd 1.43 nd | 1.43 | 1 of 18 (1.20) |

Source: Li et al. 2023 (doi:10.1038/s41467-023-39022-2), MIT Lincoln Laboratory and A-Alpha Bio; data file from the FLAb repository.